Read-outs that look alike come from different tables or passages of the source. Blank lines part the entries; values can stand above or below the binder they belong to.
Columns and labels:
human Nectin-4 = target: T1, human Nectin-4 (human, UniProt Q96NY8 32-349); assay: FP competition, tracer SEQ ID NO 217
T1 construct: a Gly32-Ser349 FLAG construct is described only under the SPR assay; also called PVRL4
T1 sequence (looked up): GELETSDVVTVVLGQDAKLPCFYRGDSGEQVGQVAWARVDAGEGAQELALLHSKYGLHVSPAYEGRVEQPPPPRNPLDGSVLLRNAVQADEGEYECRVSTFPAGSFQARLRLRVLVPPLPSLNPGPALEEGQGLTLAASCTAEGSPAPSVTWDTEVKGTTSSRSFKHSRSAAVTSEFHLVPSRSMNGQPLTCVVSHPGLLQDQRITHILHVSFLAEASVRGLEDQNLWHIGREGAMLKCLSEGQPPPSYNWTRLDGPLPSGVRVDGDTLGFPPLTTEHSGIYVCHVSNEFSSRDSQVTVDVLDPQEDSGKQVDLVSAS
Protocol: Peptides were diluted to an appropriate concentration in assay buffer as described in the direct binding assay with a maximum of 5% DMSO, then serially diluted 1 in 2. […] Measurements were conducted as for the direct binding assay, however the gain was determined prior to the first measurement. Data analysis was in Systat Sigmaplot version 12.0 where the mP values were fit to a user defined cubic equation to generate a Ki value: […]

[1] = target: T2, Human Nectin-4 (residues Gly32-Ser349) with C-terminal FLAG tag, biotinylated (human, UniProt Q96NY8 32-349, randomly biotinylated with EZ-Link Sulfo-NHS-LC-LC-Biotin); assay: SPR (Biacore), biotinylated human Nectin-4 on streptavidin chip
T2 construct: range 32-349; Captured through biotin on a streptavidin CM5 chip in the SPR assay; also called PVRL4; not shown: C-terminal FLAG tag
T2 sequence (looked up): T1 sequence (looked up)

[2] = target: T2, Human Nectin-4 (residues Gly32-Ser349) …; assay: as above; remark: listed apart in the source

Binder: CPFGCXKNWSWPIWC (N-terminal Ac; CPFGC[Hse(Me)]KNWSWPIWC; TATA on 3 Cys) [BCY7585]
- Ki (human Nectin-4): 18.5 nM

Binder: CPFXCMKNWSWPIWC (N-terminal Ac; CPF[dD]CMKNWSWPIWC; TATA on 3 Cys) [BCY7584]
- Ki (human Nectin-4): 13.5 nM

Binder: CPXGCMKNWSWPIWC (N-terminal Ac; CP[3MePhe]GCMKNWSWPIWC; TATA on 3 Cys) [BCY7580]
- Ki (human Nectin-4): 13.5 nM

Binder: CPFGCMKNWSXPIWC (not fully specified; N-terminal Ac; CPFGCMKNWS[AzaTrp]PIWC; TATA on 3 Cys) [BCY7593]
- Ki (human Nectin-4): 28 nM

Binder: CPFGCMQNWSWPIWC (N-terminal Ac; TATA on 3 Cys) [BCY7615]
- Ki (human Nectin-4): 28.4 nM

Binder: CPXGCMKNWSWPIWC (N-terminal Ac; CP[4MePhe]GCMKNWSWPIWC; TATA on 3 Cys) [BCY7581]
- Ki (human Nectin-4): 19.4 nM

Binder: ACYPLSPYWCERICA (TATA on 3 Cys) [BCY431]
- Ki (human Nectin-4): 412 nM

Binder: CPFGCMKNWSWPIXC (not fully specified; N-terminal Ac; CPFGCMKNWSWPI[AzaTrp]C; TATA on 3 Cys) [BCY7598]
- Ki (human Nectin-4): 74.9 nM

Binder: ACPFGCMKNWSWPIWCTAK (dA as second residue of the C-terminal tail; TATA on 3 Cys) [BCY7368]
- Ki (human Nectin-4): 23 nM

Binder: ACPFGCMKNWSWPIWCTNA (C-terminal dA; TATA on 3 Cys) [BCY7369]
- Ki (human Nectin-4): 77.8 nM

Binder: CPFGCMKNXSWPIWC (not fully specified; N-terminal Ac; CPFGCMKN[AzaTrp]SWPIWC; TATA on 3 Cys) [BCY7588]
- Ki (human Nectin-4): 342 nM

Now from value to binder:

- Kd [1]: 0.27 nM
B1: BCY8550 (peptide)
peptide: CPXXCMXDWSTPXWC
modifications: N-terminal acetyl; MMAE-PABC-Cit-Val-Glutaryl- linked at the Lys3 position ([dK]; cysteines not counted); core printed as CP[1Nal][dK]CM[HArg]DWSTP[HyP]WC; three Cys bound to TATA scaffold
notes: also called MMAE-PABC-Cit-Val-Glutaryl-(Lys3)-BCY8831

- Ki (human Nectin-4): 51 nM
Binder: CPFGCMXNWSWPIWC (N-terminal Ac; CPFGCM[K(Ac)]NWSWPIWC; TATA on 3 Cys) [BCY7616]

- Kd [1]: 1.44 nM
B2: BCY8549 (peptide)
peptide: CPXXCMXDWSTPXWC
modifications: not fully specified; MMAE-PABC-cyclobutyl-(B-Ala)- on the N-terminal extension [B-Ala][Sar10]; core printed as CP[1Nal][dD]CM[HArg]DWSTP[HyP]WC; three Cys bound to TATA scaffold
notes: also called MMAE-PABC-cyclobutyl-(B-Ala)-BCY8234

- Ki (human Nectin-4): 23.2 nM
Binder: CPYGCMKNWSWPIWC (N-terminal Ac; TATA on 3 Cys, also called 80-09-02-N046) [BCY7657]

- Ki (human Nectin-4): 13 nM
Binder: CPFGCMKNWSWPPWC (N-terminal Ac; TATA on 3 Cys) [BCY7618]

- Ki (human Nectin-4): 424 nM
Binder: CXFGCMKNWSWPIWC (N-terminal Ac; C[HyP]FGCMKNWSWPIWC; TATA on 3 Cys) [BCY7668]

- Kd [2]: 2.14 nM
B3: BCY8831 (peptide)
peptide: CPXXCMXDWSTPXWC
modifications: N-terminal acetyl; core printed as CP[1Nal][dK]CM[HArg]DWSTP[HyP]WC; three Cys bound to TATA scaffold
notes: Bicyclic peptide cyclised with TATA

- Ki (human Nectin-4): 23 nM
Binder: QKWCAPLSAYWCNRIC (N-terminal Ac; TATA on 3 Cys) [BCY7628]
